The values below are quoted from earlier work in patent US7858570B2, “Compositions and methods for removing urushiol and treating the resulting skin condition” (priority 2004, dated 2010).

As for “nonylphenol ethoxylate [10 mol nonylphenol ethoxylate]”, the solubility in water result is given as “Soluble”.
